Key:
Huh7.5 cells = assay: Alamar Blue viability assay
Description: (§1) Huh-7.5 cells were maintained in Dulbecco's modified minimal essential medium (Gibco) supplemented with 1% L-glutamine (Gibco), 1% penicillin, 1% streptomycin (Gibco), 1× nonessential amino acids (Gibco) and 10% fetal bovine serum (Omega Scientific). Cell lines were passaged twice weekly after treatment with 0.05% trypsin-0.02% EDTA and seeding at a dilution of 1:5. Subconfluent Huh-7.5 cells were trypsinized and collected by centrifugation at 700 g for 5 min. The cells were then washed three times in ice-cold RNase-free PBS (BioWhittaker) and resuspended at 1.5*10^7 cells/ml in PBS. Wild type or mutant FL-J6/JFH-5′C19Rluc2AUbi RNA for electroporation was generated by in vitro transcription of XbaI-linearized DNA templates using the T7 MEGAscript kit (Ambion), followed by purification, essentially as described above (In vitro RNA transcription and fluorescent labeling). 5 μg of RNA was mixed with 400 μl of washed Huh-7.5 cells in a 2 mm-gap cuvette (BTX) and immediately pulsed (0.82 kV, five 99 μs pulses) with a BTX-830 electroporator. After a 10 min recovery at 25° C., pulsed cells were diluted into 10 ml of prewarmed growth medium. Cells from several electroporations were pooled to a common a stock and seeded in 6 well plates (5*10^5 cells per well). After 24 hr, medium was replaced and cells were grown in the presence of serial dilutions of the various inhibitory compounds (Sigma) identified in the screen. […] Untreated cells were used as a negative control for water soluble compounds. For compounds solubilized in DMSO, untreated cells were grown in the presence of corresponding concentrations of the solvent as a negative control. Medium was changed daily. After 72 hr of treatment, cells were subjected to an alamar blue based viability assay and luciferase assay.
(§2) Following 72 hrs of treatment, cells were incubated for 3 hrs at 37° C. in the presence of 10% Alamar Blue reagent (TREK Diagnostic Systems).

[1] = Alamar Blue viability assay; conditions: human
Description: as §1, §2

| SMILES | Viab, percent of normal cell viability remaining (Huh7.5 cells; 5 uM) [%] | Viab, percent of normal cell viability remaining (Huh7.5 cells; 10 uM) [%] | viability at 72 h, 5 µM [1] [%] | viability at 72 h, 10 µM [1] [%] | Viab score (Huh7.5 cells; 5 uM) | Viab score (Huh7.5 cells; 10 uM) |
| --- | --- | --- | --- | --- | --- | --- |
| Cc1nc2cc(Cl)ccc2n1Cc1ccccc1 | 99 | 94 | 90 to 100 | 90 to 100 |  |  |
| Cc1cc2ncn(Cc3ccc(Cl)cc3Cl)c2cc1C | 83 | 70 |  |  | + (60-90% residual activity) | + (60-90% residual activity) |
| Brc1ccc(Cn2cnc3ccccc32)cc1 | 81 | 68 |  |  | + (60-90% residual activity) | + (60-90% residual activity) |
| Cc1nc2ccccc2n1Cc1ccc(Br)cc1 | 54 | 51 |  |  | ++ (30-60% residual activity) | ++ (30-60% residual activity) |
| OCc1nc2ccccc2n1Cc1ccc(Br)cc1 | 97 | 90 | 90 to 100 | 90 to 100 |  |  |
| COC(=O)c1ccc(Cn2cnc3ccccc32)cc1 | 101 | 96 | 90 to 100 | 90 to 100 |  |  |
| CC(C)(C)c1ccc(Cn2cnc3ccccc32)cc1 | 87 | 76 |  |  | + (60-90% residual activity) | + (60-90% residual activity) |
| Cc1ccc(Cn2cnc3ccccc32)cc1 | 99 | 84 | 90 to 100 |  |  | + (60-90% residual activity) |
| COc1ccc(Cn2cnc3ccccc32)cc1 | 98 | 100 | 90 to 100 | 90 to 100 |  |  |
